This test has as its system antisera generated in response to immunogen of Example 11. Description: Competitive chemiluminescent biochip immunoassay, antisera raised against immunogen of Example 11, conjugate of Example 12. In kind it is binding, sheep.

Consider `CN1CC[C@]23c4c5ccc(O)c4O[C@H]2C(=O)CC[C@H]3[C@H]1C5` [hydromorphone], for which the “Concentration exhibiting no cross-reactivity” value came to 10 µg/mL.

The values above are taken from patent US9612237B2, “Ritalinic acid immunoassay” (Randox Laboratories Limited, priority 2013, dated 2017).
